The values below are quoted from earlier work in patent publication US20200254041A1, “RAPID ONSET AND EXTENDED ACTION PLANT-BASED AND SYNTHETIC CANNABINOID FORMULATIONS” (RECEPTOR HOLDINGS, INC., priority 2017, published 2020).

The conditions of the data set: cited from earlier work.

As for Catechin, the “water solubility (in words)” value is given as “low water solubility”.
